Test results from ChEMBL document CHEMBL1926502, “The discovery of UK-369003, a novel PDE5 inhibitor with the potential for oral bioavailability and dose-proportional pharmacokinetics” (Bioorg Med Chem, 2012).

Experiments:
Homo sapiens = organism: Homo sapiens; test: Selectivity ratio of IC50 for PDE6 to IC50 for human PDE5
Method in brief: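 PDE5 was prepared from human corpus cavernosum and cone PDE6 from dog retina (anion-exchange fraction). IC50s came from concentration–response curves in a scintillation proximity assay with [3H]/unlabelled cGMP (1:3) at about 1/3 Km, so IC50 = Ki. Buffer was 20 mM Tris-HCl pH 7.4, 5 mM MgCl2, 1 mg/mL BSA; 30–60 min at 30 °C, <30% turnover. Ratio = PDE6 IC50/PDE5 IC50.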

Caco-2 = test: Efflux ratio of apparent permeability from apical to basolateral to basolateral to apical side of human Caco2 cells; format: ADME, cell-based
Method in brief: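 Caco-2 cell monolayers; flux measured in both directions, and the efflux ratio is taken as apical→basolateral flux divided by basolateral→apical flux.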

Ratio IC50 (Homo sapiens): 117
Ratio (Caco-2): 1.5
SMILES: CCOc1ncc(S(=O)(=O)N2CCN(CC)CC2)cc1-c1nc2c(CC)n(CCOC)nc2c(=O)[nH]1
